Data published in article PMC3366963, “Nucleolin Inhibits G4 Oligonucleotide Unwinding by Werner Helicase” (PLoS ONE, 2012).

By UniProt entry, the sequences of proteins in these tests, tags left out.
UniProt Q14191, whole entry: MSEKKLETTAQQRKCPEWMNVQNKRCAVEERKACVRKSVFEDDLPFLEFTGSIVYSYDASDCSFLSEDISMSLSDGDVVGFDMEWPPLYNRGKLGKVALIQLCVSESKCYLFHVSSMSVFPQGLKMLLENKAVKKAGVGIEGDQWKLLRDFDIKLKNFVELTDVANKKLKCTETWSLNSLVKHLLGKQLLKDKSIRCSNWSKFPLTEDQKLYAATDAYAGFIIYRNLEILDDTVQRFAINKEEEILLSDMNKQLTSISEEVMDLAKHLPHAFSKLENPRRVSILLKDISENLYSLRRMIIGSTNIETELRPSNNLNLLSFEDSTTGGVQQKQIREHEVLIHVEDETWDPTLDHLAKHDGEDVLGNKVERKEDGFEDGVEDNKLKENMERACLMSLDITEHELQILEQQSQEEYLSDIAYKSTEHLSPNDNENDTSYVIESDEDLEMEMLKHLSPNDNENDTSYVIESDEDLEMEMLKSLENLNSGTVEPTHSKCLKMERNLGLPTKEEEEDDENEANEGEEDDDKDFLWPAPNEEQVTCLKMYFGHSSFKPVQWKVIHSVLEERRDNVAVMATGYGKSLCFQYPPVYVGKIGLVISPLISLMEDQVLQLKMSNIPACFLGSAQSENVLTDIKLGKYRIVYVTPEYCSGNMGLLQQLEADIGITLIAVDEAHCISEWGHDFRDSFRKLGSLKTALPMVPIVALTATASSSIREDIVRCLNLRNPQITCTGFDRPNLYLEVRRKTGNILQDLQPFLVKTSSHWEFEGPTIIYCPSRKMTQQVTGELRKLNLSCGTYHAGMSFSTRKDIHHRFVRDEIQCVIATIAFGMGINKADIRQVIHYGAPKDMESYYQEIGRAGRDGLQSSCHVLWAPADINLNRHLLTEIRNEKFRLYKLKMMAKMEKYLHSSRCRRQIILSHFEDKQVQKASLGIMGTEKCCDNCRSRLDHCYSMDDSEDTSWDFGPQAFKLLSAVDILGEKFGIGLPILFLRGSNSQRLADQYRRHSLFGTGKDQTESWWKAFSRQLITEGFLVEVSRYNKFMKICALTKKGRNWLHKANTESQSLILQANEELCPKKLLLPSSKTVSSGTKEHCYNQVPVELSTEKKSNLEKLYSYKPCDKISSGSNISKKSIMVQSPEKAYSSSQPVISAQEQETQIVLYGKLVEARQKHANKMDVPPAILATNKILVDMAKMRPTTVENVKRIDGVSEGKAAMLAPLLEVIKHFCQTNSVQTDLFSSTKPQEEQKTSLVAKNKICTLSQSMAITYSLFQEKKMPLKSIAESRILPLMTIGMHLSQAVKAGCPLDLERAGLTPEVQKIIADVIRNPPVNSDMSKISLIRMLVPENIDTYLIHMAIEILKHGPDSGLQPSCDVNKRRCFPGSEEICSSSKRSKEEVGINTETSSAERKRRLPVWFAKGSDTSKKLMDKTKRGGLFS

Target: His6-WRN, full length purified (human, UniProt Q14191)
Experiment: cell-based or functional assay

inhibition of WRN helicase unwinding of a 22 base pair partial duplex fork substrate, ΔN-NCL at a molar ratio of 25:1 vs WRN: ~50%
B1: GST-ΔN-NCL (domain or fragment, human, UniProt P19338 284-707, looked up)
chain: MAKQKAAPEAKKQKVEGTEPTTAFNLFVGNLNFNKSAPELKTGISDVFAKNDLAVVDVRIGMTRKFGYVDFESAEDLEKALELTGLKVFGNEIKLEKPKGKDSKKERDARTLLAKNLPYKVTQDELKEVFEDAAEIRLVSKDGKSKGIAYIEFKTEADAEKTFEEKQGTEIDGRSISLYYTGEKGQNQDYRGGKNSTWSGESKTLVLSNLSYSATEETLQEVFEKATFIKVPQNQNGKSKGYAFIEFASFEDAKEALNSCNKREIEGRAIRLELQGPRGSPNARSQPSKTLFVKGLSEDTTEETLKESFDGSVRARIVTDRETGSSKGFGFVDFNSEEDAKAAKEAMEDGEIDGNKVTLDWAKPKGEGGFGGRGGGRGGFGGRGGGRGGRGGFGGRGRGGFGGRGGFRGGRGGGGDHKPQGKKT
